Experimental data reported in patent publication US20090148535A1, “METHOD FOR TREATING CANCER USING INTERFERENCE RNA” (MINERVA BIOTECHNOLOGIES CORPORATION, priority 2007, published 2009).

Experiments:
Assay type in all cases: cell-based
[1] = tested on: full-length MUC1; test: Western blot of full-length MUC1 in cells made HERCEPTIN resistant; settings: breast tumor cells that acquired resistance to HERCEPTIN
[2] = tested on: BTRes2 cells; test: Growth of BTRes2 cells in HERCEPTIN; settings: HERCEPTIN 0-3 ug/ml; cell counts three days post-treatment
Experimental: (§1) Cells were plated in 96 well plates at 10,000 cells/well, six wells/condition. […] Three days later, the remaining cells were counted using a hemocytometer.
(§2) Percent Normalized Growth was then calculated: Percent Normalized Growth=[(Day 3 cell counts with Antibody Added )−(Zero-day cell counts)]/[(Day 3 Cell counts without antibody added)−(Zero-day cell counts)]×100%

[3] = tested on: BT474 cells; test: Growth of BT474 cells in HERCEPTIN; settings: HERCEPTIN 0-3 ug/ml; cell counts three days post-treatment
Experimental: as §1, §2

[4] = tested on: MUC1*; test: Western blot of MUC1* in cells made HERCEPTIN resistant; settings: BTRes1 and BTRes2 vs BT474; cultured in 1 ug/ml HERCEPTIN for 3 months
[5] = tested on: BTRes1 cells; test: Growth of BTRes1 cells in HERCEPTIN; settings: HERCEPTIN 0-3 ug/ml; cell counts three days post-treatment
Experimental: as §1, §2

For “HERCEPTIN: humanized monoclonal antibody that acts on the HER2/neu (erbB2) receptor”, the “amount of full-length MUC1” value [1] was “no changes”, the cell growth [2] was “unaffected” and the cell growth [3] was “dose-dependent inhibition of cell growth”. For the same substance, the “increase in the expression of MUC1*” value [4] was 4-6 × and the cell growth [5] was “unaffected”.
